The text below walks through data of article PMC11602703 (Frontiers in Pharmacology, 2024).

Where two headings read alike, the source gives them in different places.

For one experiment, the system named is HCT116 cells. The experiment can be described thus: Cell growth, crystal violet assay, HCT116. The format is cell-based. Particulars: Homo sapiens, HCT-116, 72 h, read-out: Cellular IC50 values HCT116.
For another experiment, the system named is A2780 cells. Description: Cell growth, crystal violet assay, A2780. Particulars: Homo sapiens, A2780, 72 h, read-out: Cellular IC50 values A2780.
The test system of the next experiment is A2780/CP cells. Description: Cell growth, crystal violet assay, A2780/CP. The format is cell-based. The note with it: Homo sapiens, A2780C/P, 72 h, read-out: Cellular IC50 values A2780/CP.
A further experiment relates to HT29 cells. The experiment can be described thus: Cell growth, crystal violet assay, HT29. It is filed as cell-based. The note with it: Homo sapiens, HT-29, 72 h, read-out: Cellular IC50 values HT29.
The test system of another experiment is IGROV-1 cells. Description: cells. It is filed as cell-based, human.
Where [1] appears, read: Homo sapiens, IGROV-1, 72 h, read-out: Cellular IC50 values IGROV-1, 72 h-treatment, compound alone.

On to `O=c1[nH]cc(F)c(=O)[nH]1` [Compound 5-FU, 5-fluorouracil, reference compound], for which the IC50 with HCT116 cells worked out at 13.5 ± 1.5 µM; in the experiment on A2780 cells, 8.5 ± 0.8 µM; in the experiment with A2780/CP cells it was 11.6 ± 1.2 µM; in the experiment on HT29 cells it was 14.2 ± 3 µM; in the experiment on IGROV-1 cells (setting [1]) it was 16.9 ± 1 µM.

As to `CS(=O)(=O)c1ccc2nc(NC(=O)C(Sc3ccc([N+](=O)[O-])cc3)c3ccccc3)sc2c1` (stereo not drawn) [Compound E7, phenyl-2-(4-nitrophenylthio)-N-(6-methanesulfonylbenzothiazol-2-yl)acetamide], the IC50 in the experiment on HCT116 cells was found to be 35.5 ± 0.3 µM; in the experiment on A2780 cells, 10.1 ± 0.3 µM; with A2780/CP cells, 21.5 ± 3 µM; in the experiment with HT29 cells it was 34.5 ± 3 µM; with IGROV-1 cells (setting [1]), 37.4 ± 6 µM.

With `NC(=O)c1ccc(NC(=O)C(Sc2ccc([N+](=O)[O-])cc2)c2ccccc2)cc1` (stereo not drawn) [Compound E5, 2-Phenyl-2-(4-nitrophenylthio)-N-(4-carboxamidophenyl)acetamide], the IC50 with HCT116 cells is 61.8 ± 1.8 µM; in the experiment with A2780 cells, 28.8 ± 4 µM; in the experiment with A2780/CP cells it was 34.3 ± 5 µM; in the experiment with HT29 cells, 70.5 ± 1.6 µM; in the experiment on IGROV-1 cells (read-out: Cellular IC50 values IGROV-1, 72 h-treatment, compound alone), 63.9 ± 8 µM.
